Patent publication EP0585300B1, “GALANIN ANTAGONIST” (priority 1991, dated 1997)

Experiments:
pancreatic beta-cells = test: Galanin-inhibited glucose-induced insulin release (procedure of Ahrén et al.); type: cell-based, mice (ob/ob); settings: galanin 10^-7 M, glucose 8.3 mM, 60 min incubation; glucose alone 34±2 µU/ml; N=32
From the text: 1) Galanin inhibits glucose-induced insulin release, measured according to Ahrén, B., et al (Biochemical and Biophysical Research Communications, Vol. 140. No. 3, 1986, 1059-1063). By using the same procedure as the cited Ahrén B., et al, a peptide according to the invention, M15, is now shown to block the galanin-inhibited insulin release in equimolar concentration.
Adult obese hyperglycemic mice (ob/ob) of both sexes were taken from a local non-inbred colony and starved overnight. The animals were killed by decapitation and the islets were isolated by collagenase isolation technique. A cell suspension was prepared essentially as described by Lehrnmark, Å., in Diabetologia 10, 1974, 431-438. Briefly, the islets were dissociated into single cells and small clusters by shaking in a Ca^2+-Mg^2+-deficient medium supplemented with EGTA (Ethylene glycol-bis(beta-aminoethyl ether)N,N,N',N',-tetra-acetic acid, SIGMA). […]
The kinetics of insulin release were studied by perfusing pancreatic beta-cells (approx. 1 x 10^6) with 20 mM or 5 mM glucose mixed with Bio-Gel P-4 polyacrylamide beads (200-400 mesh, Bio-Rad Lab., Richmond, Ca, U.S.A.) in a 0.5 ml column. The flow rate was 0.5 ml/min and 1-3 min fractions were collected and analyzed for insulin radioimmunologically, using crystalline rat insulin as a reference.

flexor reflex = test: Electrophysiological study: intrathecal galanin-induced facilitation of the flexor reflex; type: in vivo; settings: 30 pmol galanin i.t.; decerebrated, spinalized rats
From the text: 3) Effects of intrathecal galanin and C-fiber stimulation on the flexor reflex has been described by Wiesenfeld-Hallin Z., et al (Brain Res. 486 (1989)205-213). By using substantially the same procedure as the cited reference, a peptide according to the invention, M15, is shown to have an antagonistic effect on intrathecal galanin-induced facilitation of the flexor reflex.
In acute experiments, the magnitude of the polysynaptic hamstring flexor reflex in response to activation of high threshold afferents was examined in decerebrated, spinalized, unanaesthetized rats by recording the electromyogram (EMG) from the posterior bicepts femoris/semitendinosus muscles. […]
The flexor reflex was recorded as EMG activity via stainless steel needle electrodes inserted in the ipsilateral hamstring muscles. […] The integrated reflex was recorded on a Gould chart recorder (Model 2400 S). During the experiments the heart rate and rectal temperature of the rat were monitored and maintained within normal limits. […]
A stable baseline reflex magnitude was established for at least 20 min before each i.t. injection or nerve CS. The effect of i.t. peptides or the nerve CS on the flexor reflex was expressed as percent change in reflex magnitude compared to baseline which was defined as 100%. […]
The antagonistic effect of intrathecal (i.t.) M-15 on the i.t. galanin-induced facilitation of the flexor reflex was measured. […]

[1] = tested on: scopolamine-induced release of ACh; test: Microdialysis: scopolamine-induced release of ACh in vivo, ventral hippocampus; parameters: species or system rat; settings: galanin 1.56 nmoles i.c.v. 2 min before scopolamine 0.3 mg/kg s.c.; n=2 rats
Description: 2) Galanin inhibits acetylcholine release, measured according to Fisone G., et al (Proc. Natl. Acad. Sci. vol 84, 1987, 7339-7343). By using substantially the same procedure as the cited Fisone G., et al, a peptide according to the invention, M15, is now shown to counteract the inhibitory effects of galanin on the scopolamine-induced release of acetylcholine in vivo.
Surgery and basic methodology. Experiments were carried out with female CD-COBS (Charles River, Como, Italy) rats, weighing 200-260 g. Animals were anesthetized with equitensin (1% pentobarbital, 4% chloral hydrate). […] The microdialysis probe extended 3 mm beyond the end of the guide cannula; it was perfused at a constant rate of 2 µl(min with Ringer's solution (NaCl, 147 mM; CaCl2, 2.2 mM and KCl, 4.0 mM), containing 10 µM physostigmine sulfate and adjusted to pH 7.0 with NaOH. The initial 40 min perfusate was discarded. Thereafter, perfusates were collected every 20 min during a total perfusion period of 260 min. At the end of the collection period, the samples were immediately frozen on solid CO2 and lyophilized. Acetylcholine (Ach) content was quantified by a specific radioenzymatic method described in detail by Consolo S., et al. (J. Neurochem. […]
Galanin (1.56 nmoles) and M15 (3.12 nmoles) were injected i.c.v. […] ACh release was measured in the perfusate collected during the following 80 min, in four 20 min-fractions. […]

In the case of galanin, the insulin release (pancreatic beta-cells) is reported as 3±1 µU/ml, the “peak facilitatory effect over baseline reflex magnitude” value (flexor reflex) is reported as 167.0±42.8% and the “ACh release (pmoles of ACh in the 20 min fraction at the peak of the scopolamine-effect)” value [1] is reported as 6.9 pmol.
